{
  "source": "patent US20230126276A1",
  "about": "“FENTANYL HAPTENS, FENTANYL HAPTEN CONJUGATES, AND METHODS FOR MAKING AND USING” (published 2023)",
  "key": {"[1]": {"tested_on": "fentanyl-induced antinociception", "conditions": "mice; 0.05 mg/kg s.c. fentanyl; 30 minutes post-challenge; FIG. 2A"}, "[2]": {"tested_on": "fentanyl-induced antinociception", "conditions": "rats; 0.1 mg/kg s.c. fentanyl; F4-6 conjugates on sKLH or CRM2; FIG. 5A"}, "[3]": {"tested_on": "fentanyl-induced respiratory depression and bradycardia", "conditions": "rats, 0.1 mg/kg s.c. fentanyl"}},
  "data": [
    {"substance": "Lithium 2-(3-(4-(N-(1-phenethylpiperidin-4-yl)propionamido)phenyl)ureido) acetate", "values": [
      {"measurement": "fentanyl-induced antinociception in the hot plate test", "setting": "[1]", "result": "effective in significantly reducing (p≤0.0001)"},
      {"measurement": "fentanyl antinociception in the hot plate test", "setting": "[2]", "result": "effective in significantly reducing"},
      {"measurement": "fentanyl respiratory depression (% oxygen saturation)", "setting": "[3]; FIG. 5B", "result": "effective in significantly reducing"},
      {"measurement": "fentanyl bradycardia (heart rate)", "setting": "[3]; FIG. 5C", "result": "effective in significantly reducing"}
    ]}
  ]
}
